This passage reports inhibition results from ChEMBL document CHEMBL2321737, “Selective inhibition of glycosyltransferases by bivalent imidazolium salts” (Bioorg Med Chem, 2013).

SMILES strings stand for the structures.

This test in a line: Inhibition of human GNT1 using Man3-octyl as substrate at 0.5 mM after 1 hr in presence of phosphatidylcholine.

Consider `C[n+]1ccn(CCCCCCCCCCCCCCCCCCCCCCn2cc[n+](C)c2)c1`, for which the inhibition is below 1%.
